The source of these data is patent US7906624B2, “Binding peptidomimetics and uses of the same” (The Trustees of the University of Pennsylvania, priority 2004, dated 2011).

The test system of the test is T6-17 cells injected subcutaneously into nude mice. The test is described as follows: T6-17 tumor growth in nude mice. It counts as in vivo. As to conditions: second (intraperitoneal) experiment, after day 10. Here is the method:
FIG. 6, panels A and B show inhibition of tumor growth by ASA. 1 million of T6-17 cells were injected subcutaneously into nude mice to induce the tumor growth. Panel A. Treatment of ASA started from day 0. Panel B. Treatment started on day 2 after tumor were palpable. NCR homozygous athymic (nude) mice (six to eight weeks-old) were purchased from the National Cancer Institute. To induce tumor, 10^6 transformed T6-17 cells were suspended in 100 μl of PBS and injected subcutaneously into the flank of each animal. Animals were maintained in accordance with guidelines of the Institutional Animal Care and Use Committee (IACUC) of the University of […]. Tumor volume was calculated by the formula: π*length*width*Height/6. T6-17 cells were transformed by the over-expression of human Her2/neu (ref). After introduced to nude mice subcutaneously, palpable tumors appear about 48-72 hours later. In one experiment, animals were treated with either streptavidin or ASA (11.25 mg/kg/week). Treatment stared from day 0 and was provided to animals by three subcutaneous injections each week. Treatment with ASA prevented the appearance of palpable tumor until day 7 and reduced the tumor size by 62% at day 14 (FIG. 6 Panel A). […]

Take “4D5scFv: Single chain Fv of anti-HER2 antibody 4D5, comparator in the tumor experiment [reference compound]”: the “suppression of tumor growth” value is “did not reveal significant suppression of tumor-growth-after day 10”.
